Assay results from ChEMBL document CHEMBL5360540, “Antitumor effect of 3-(quinolin-2-ylmethylene)-4,6-dimethyl-5-hydroxy-7-azaoxindole down-regulating the Gas6-Axl axis” (Eur J Med Chem, 2023).

Key:
[1] = test system: T1, Tyrosine-protein kinase receptor UFO (Homo sapiens), P30530 [R499C]; experiment: Inhibition of human AXL R499C mutant using MEK1 as substrate at 1 uM incubated for 40 mins by gamma33P-ATP based scintillation counter analysis relative to control
T1 sequence (whole entry): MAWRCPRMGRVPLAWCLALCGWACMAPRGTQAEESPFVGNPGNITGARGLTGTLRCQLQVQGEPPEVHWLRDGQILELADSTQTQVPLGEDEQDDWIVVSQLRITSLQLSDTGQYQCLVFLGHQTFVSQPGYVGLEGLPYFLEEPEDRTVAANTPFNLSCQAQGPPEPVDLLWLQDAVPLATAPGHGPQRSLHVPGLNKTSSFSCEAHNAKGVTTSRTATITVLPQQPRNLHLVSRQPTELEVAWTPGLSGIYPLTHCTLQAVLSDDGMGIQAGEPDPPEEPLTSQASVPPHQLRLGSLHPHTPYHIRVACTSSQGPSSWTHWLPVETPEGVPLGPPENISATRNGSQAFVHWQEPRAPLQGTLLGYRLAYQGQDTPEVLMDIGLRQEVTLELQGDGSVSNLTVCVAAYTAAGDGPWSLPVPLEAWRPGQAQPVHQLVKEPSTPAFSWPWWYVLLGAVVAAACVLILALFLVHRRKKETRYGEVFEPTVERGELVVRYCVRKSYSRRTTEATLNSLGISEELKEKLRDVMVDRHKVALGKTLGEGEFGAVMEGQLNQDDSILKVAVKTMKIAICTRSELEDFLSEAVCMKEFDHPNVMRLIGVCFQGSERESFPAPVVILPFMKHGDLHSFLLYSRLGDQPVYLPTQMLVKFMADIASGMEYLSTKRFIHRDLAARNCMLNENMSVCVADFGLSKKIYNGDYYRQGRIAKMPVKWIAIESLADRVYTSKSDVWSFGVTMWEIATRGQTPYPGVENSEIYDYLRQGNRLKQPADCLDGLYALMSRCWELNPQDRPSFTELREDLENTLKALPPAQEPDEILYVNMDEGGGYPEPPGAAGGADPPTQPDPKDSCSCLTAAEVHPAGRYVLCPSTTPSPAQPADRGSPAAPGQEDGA

[2] = test system: T1, Tyrosine-protein kinase receptor UFO (Homo sapiens), P30530 [R499C]; experiment: Inhibition of human AXL R499C mutant using MEK1 as substrate at 10 uM incubated for 40 mins by gamma33P-ATP based scintillation counter analysis relative to control

SMILES: Cc1nc2c(c(C)c1O)/C(=C/c1ccc3ccccc3n1)C(=O)N2
- inhibition [1]: 1.2%
- inhibition [2]: 8.3%
